PubChem BioAssay AID720704 (The Scripps Research Institute Molecular Screening Center, 2013)
This is a selection; strong and weak results do not stand in their true shares. Activity calls are given as the source filed them. No stated cut-off is given here; in the data, active means inhibition above about 11%; inactive means the rest.

The chains behind the UniProt entries cited, without tags or fusion partners.
UniProt Q01970, whole entry: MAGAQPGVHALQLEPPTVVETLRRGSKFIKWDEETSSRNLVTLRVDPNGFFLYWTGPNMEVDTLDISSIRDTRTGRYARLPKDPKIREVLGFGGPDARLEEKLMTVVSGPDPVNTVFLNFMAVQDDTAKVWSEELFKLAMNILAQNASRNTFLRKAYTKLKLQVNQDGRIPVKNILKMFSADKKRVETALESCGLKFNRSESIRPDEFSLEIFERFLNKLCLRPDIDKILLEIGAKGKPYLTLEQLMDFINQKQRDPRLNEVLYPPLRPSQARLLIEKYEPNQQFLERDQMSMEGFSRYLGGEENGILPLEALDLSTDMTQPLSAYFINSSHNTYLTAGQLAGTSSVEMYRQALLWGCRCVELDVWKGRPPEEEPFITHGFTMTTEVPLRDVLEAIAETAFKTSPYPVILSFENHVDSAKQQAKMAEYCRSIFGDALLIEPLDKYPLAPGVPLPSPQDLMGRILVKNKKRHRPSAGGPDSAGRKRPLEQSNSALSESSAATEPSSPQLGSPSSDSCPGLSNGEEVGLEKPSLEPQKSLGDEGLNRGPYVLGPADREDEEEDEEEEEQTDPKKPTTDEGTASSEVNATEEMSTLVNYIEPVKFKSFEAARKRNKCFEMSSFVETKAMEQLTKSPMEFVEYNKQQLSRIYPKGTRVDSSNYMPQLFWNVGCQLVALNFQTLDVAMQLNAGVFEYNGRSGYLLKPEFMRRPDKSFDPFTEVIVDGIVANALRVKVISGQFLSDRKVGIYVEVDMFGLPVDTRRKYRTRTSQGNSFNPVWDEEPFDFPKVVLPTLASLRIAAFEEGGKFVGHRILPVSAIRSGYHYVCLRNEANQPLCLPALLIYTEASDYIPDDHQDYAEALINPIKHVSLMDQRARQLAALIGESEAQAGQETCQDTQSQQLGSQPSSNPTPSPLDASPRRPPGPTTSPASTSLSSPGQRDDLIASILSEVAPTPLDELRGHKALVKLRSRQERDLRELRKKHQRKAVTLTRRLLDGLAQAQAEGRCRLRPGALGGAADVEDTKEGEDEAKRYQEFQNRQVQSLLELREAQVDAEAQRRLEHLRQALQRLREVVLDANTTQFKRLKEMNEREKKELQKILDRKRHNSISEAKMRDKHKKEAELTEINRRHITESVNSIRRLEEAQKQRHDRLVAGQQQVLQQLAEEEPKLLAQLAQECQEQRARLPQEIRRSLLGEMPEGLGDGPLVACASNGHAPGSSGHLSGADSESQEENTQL

biological target: 1-phosphatidylinositol 4,5-bisphosphate phosphodiesterase beta-3 (Homo sapiens) (UniProt Q01970); assay: phospholipase C beta3 enzyme inhibition – biochemical, fluorescence, primary screen (AID 720704); settings: Purified PLC-beta3, fluorogenic substrate, at 12.2 µM, active compounds read high;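 further: 0% = median of compound wells on plate and 100% = full blocker control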

Row | SMILES | inhibition
1 | O=C(O)c1cccc(Nc2c([N+](=O)[O-])cc([N+](=O)[O-])cc2[N+](=O)[O-])c1 | inactive: 7.19%
2 | CC1=NCCc2c1[nH]c1ccccc21.O=[N+]([O-])c1cc([N+](=O)[O-])c(O)c([N+](=O)[O-])c1 | inactive: -173%
3 | Cc1cc(C)cc(OP(C)(=O)Nc2ccc(C)cc2C)c1 (centres undefined) | inactive: 3.47%
4 | CCOC(=O)c1ccc(NP(C)(=O)Oc2cc(C)cc(C)c2)cc1 (centres undefined) | inactive: 3.6%
5 | COc1ccccc1OP(C)(=O)Nc1cccc(Br)c1 (centres undefined) | inactive: 4.46%
6 | Cc1cc(C)cc(OP(C)(=O)Nc2ccccn2)c1 (centres undefined) | inactive: 1.11%
7 | CP(=O)(Nc1cccc(Br)c1)Oc1ccccc1 (centres undefined) | inactive: -1.2%
8 | Cc1ccc(C)c(NP(C)(=O)Oc2ccccc2)c1 (centres undefined) | inactive: 1.64%
9 | CN(Cc1cccnc1)C(=O)COc1ccc(Cl)c(Cl)c1.O=[N+]([O-])c1cc([N+](=O)[O-])c(O)c([N+](=O)[O-])c1 | inactive: -0.3%
10 | O=[N+]([O-])c1cc([N+](=O)[O-])c(-n2nnc3ccccc32)c([N+](=O)[O-])c1 | inactive: 3.8%
11 | Cc1nc2ccc3ccccc3c2s1.O=[N+]([O-])c1cc([N+](=O)[O-])c(O)c([N+](=O)[O-])c1 | active: 12.2%
12 | O=[N+]([O-])c1cc([N+](=O)[O-])c(-c2cnn(-c3ccccc3)c2)c([N+](=O)[O-])c1 | inactive: -5.38%
13 | CCOC(=O)C(CC)C1=NC(C)(C)Cc2ccccc21.O=[N+]([O-])c1cc([N+](=O)[O-])c(O)c([N+](=O)[O-])c1 (centres undefined) | inactive: -5.56%
14 | O=[N+]([O-])c1cc([N+](=O)[O-])c(Nc2nnnn2CCO)c([N+](=O)[O-])c1 | inactive: 1.56%
15 | CCCOc1ccc(NP(C)(=O)Oc2ccc(Cl)cc2)cc1 (centres undefined) | inactive: -0.41%
16 | CP(=O)(Nc1ccc(SC(F)(F)F)cc1)Oc1ccccc1 (centres undefined) | inactive: 2.35%
17 | COc1ccc(-c2ccccn2)cc1.O=[N+]([O-])c1cc([N+](=O)[O-])c(O)c([N+](=O)[O-])c1 | inactive: 1.21%
18 | COc1ccccc1OP(C)(=O)Nc1c(C)cccc1C (centres undefined) | inactive: 2.6%
19 | CN1CCCCC1COC(=O)C1(O)c2ccccc2CCc2ccccc21 (centres undefined) | inactive: 2.21%
20 | COc1ccccc1OP(C)(=O)Nc1ccccc1 (centres undefined) | inactive: -4.91%

Row | SMILES | inhibition
21 | CP(=O)(Nc1ccccc1Br)Oc1ccccc1 (centres undefined) | inactive: -1.87%
22 | CP(=S)(Nn1cnnc1)Oc1ccccc1 (centres undefined) | inactive: -3.3%
23 | Cc1cc(C)cc(OP(C)(=O)Nc2ccc(SC(F)(F)F)cc2)c1 (centres undefined) | inactive: 4.52%
24 | CP(=O)(NC(=O)Nc1ccccc1)Oc1ccccc1 (centres undefined) | inactive: 3.26%
25 | CCc1ccc(OP(C)(=O)N2CCN(c3ccc([N+](=O)[O-])cc3)CC2)cc1 (centres undefined) | inactive: -6.25%
26 | CP(=O)(Oc1ccccc1)OC(c1ccccc1)C(F)(F)F (centres undefined) | inactive: -5.39%
27 | Cc1cccc(C)c1OP(C)(=O)Nc1ccc(SC(F)(F)F)cc1 (centres undefined) | inactive: -15.2%
28 | CP(=O)(Nc1ccc(SC(F)(F)F)cc1)Oc1ccc(Cl)cc1 (centres undefined) | inactive: 1.12%
29 | CP(=O)(Nc1ccccn1)Oc1ccc(Cl)cc1 (centres undefined) | inactive: -0.88%
30 | CCOP(C)(=S)SCC(=O)NC(C)C(=O)O (centres undefined) | inactive: 3.73%
31 | CCOC(=O)c1ccc(NP(C)(=O)Oc2ccc(OC)cc2)cc1 (centres undefined) | inactive: 1.82%
32 | O=[N+]([O-])c1cc([N+](=O)[O-])c(O)c([N+](=O)[O-])c1.c1ccc(Oc2ccncc2)cc1 | inactive: -2.05%
33 | CCN(CC)CCCOC(=O)C(O)(c1ccccc1)c1ccccc1 | inactive: -9.03%
34 | COc1ccccc1-c1ccccn1.O=[N+]([O-])c1cc([N+](=O)[O-])c(O)c([N+](=O)[O-])c1 | inactive: 1.9%
35 | Cc1cccc(C)c1OP(C)(N)=O (centres undefined) | inactive: -2.51%
36 | CC(C)(C)c1ccc(OP(C)(=O)Nc2ccc(SC(F)(F)F)cc2)cc1 (centres undefined) | inactive: 1.94%
37 | O=[N+]([O-])c1ccc2c(c1)C=Nc1ccccc1O2 | inactive: 4.82%
38 | O=[N+]([O-])c1cc([N+](=O)[O-])c(Nc2cccnc2)c([N+](=O)[O-])c1 | inactive: 5.38%
39 | COc1ccc(OP(C)(=O)Nc2cccc(F)c2)cc1 (centres undefined) | inactive: 1.28%
40 | COc1ccccc1OP(C)(=O)Nc1cc(Cl)ccc1C (centres undefined) | inactive: 3.16%

Row | SMILES | inhibition
41 | Cc1cc(C)cc(OP(C)(N)=O)c1 (centres undefined) | inactive: -1.27%
42 | CCOC(=O)c1ccc(NP(C)(=O)Oc2ccccc2)cc1 (centres undefined) | inactive: -1.62%
43 | Cc1ccc(NP(C)(=O)Oc2ccccc2)c(C)c1 (centres undefined) | inactive: 0.48%
44 | COc1ccccc1OP(C)(=O)Nc1ccc(C)cc1 (centres undefined) | inactive: 6.09%
45 | COc1ccc(OP(C)(=O)Nc2ccccc2Br)cc1 (centres undefined) | inactive: 1.79%
46 | COc1ccccc1OP(C)(=O)Nc1ccc(C)c(C)c1 (centres undefined) | inactive: 1.14%
47 | Cc1cc(C)cc(OP(C)(=O)Nc2cccc(C(F)(F)F)c2)c1 (centres undefined) | inactive: 2.9%
48 | O=C1C(O)=C([N+](=O)[O-])C(=O)C(O)=C1[N+](=O)[O-] | inactive: 0.99%
49 | CCCCCCCCCCCCCCCC1C[N+](C)(C)CCOP(C)(=O)O1 (centres undefined) | inactive: 4.11%
50 | CP(=O)(Nc1ccc(Cl)cc1Cl)Oc1ccccc1 (centres undefined) | inactive: -8.82%
51 | CP(=O)(OCCOc1ccccc1)OCCOc1ccccc1 | inactive: 3.1%
52 | CN(C)CCOC(=O)C(O)(c1ccccc1)C1CCCC1 (centres undefined) | inactive: 2.31%
53 | COc1ccc(OP(C)(=O)Nc2ccccn2)cc1 (centres undefined) | inactive: 2.31%
54 | COc1ccccc1OP(C)(=O)Nc1ccc(Br)cc1 (centres undefined) | inactive: -2.87%
55 | CCc1ccc(OP(C)(=O)O)cc1 | inactive: 2.33%
56 | COc1ccccc1OP(C)(=O)Nc1ccc(C)cc1C (centres undefined) | inactive: 2.08%
57 | CP(=O)(Nc1ccccn1)Oc1ccccc1 (centres undefined) | inactive: -1.91%
58 | Cc1c(NP(C)(=O)Oc2ccc(C(C)C)cc2)c(=O)n(-c2ccccc2)n1C (centres undefined) | inactive: -2.42%
59 | O=[N+]([O-])c1cc([N+](=O)[O-])c(Nc2ccccn2)c([N+](=O)[O-])c1 | inactive: 5.11%
